Values of other authors, collected in patent US10948221B1 (priority 2020, dated 2021).

Tested on: rat
Conditions: in vivo

## NaCl
  LD50 (oral-rat; mg/kg): 3000 mg/kg
